The text below walks through data of ChEMBL document CHEMBL4052585 (J Med Chem, 2017).

The chains behind the UniProt entries cited, without tags or fusion partners. Where a name states a change or a piece, a line headed by the entry shows the natural chain unless it says otherwise.
UniProt Q99558: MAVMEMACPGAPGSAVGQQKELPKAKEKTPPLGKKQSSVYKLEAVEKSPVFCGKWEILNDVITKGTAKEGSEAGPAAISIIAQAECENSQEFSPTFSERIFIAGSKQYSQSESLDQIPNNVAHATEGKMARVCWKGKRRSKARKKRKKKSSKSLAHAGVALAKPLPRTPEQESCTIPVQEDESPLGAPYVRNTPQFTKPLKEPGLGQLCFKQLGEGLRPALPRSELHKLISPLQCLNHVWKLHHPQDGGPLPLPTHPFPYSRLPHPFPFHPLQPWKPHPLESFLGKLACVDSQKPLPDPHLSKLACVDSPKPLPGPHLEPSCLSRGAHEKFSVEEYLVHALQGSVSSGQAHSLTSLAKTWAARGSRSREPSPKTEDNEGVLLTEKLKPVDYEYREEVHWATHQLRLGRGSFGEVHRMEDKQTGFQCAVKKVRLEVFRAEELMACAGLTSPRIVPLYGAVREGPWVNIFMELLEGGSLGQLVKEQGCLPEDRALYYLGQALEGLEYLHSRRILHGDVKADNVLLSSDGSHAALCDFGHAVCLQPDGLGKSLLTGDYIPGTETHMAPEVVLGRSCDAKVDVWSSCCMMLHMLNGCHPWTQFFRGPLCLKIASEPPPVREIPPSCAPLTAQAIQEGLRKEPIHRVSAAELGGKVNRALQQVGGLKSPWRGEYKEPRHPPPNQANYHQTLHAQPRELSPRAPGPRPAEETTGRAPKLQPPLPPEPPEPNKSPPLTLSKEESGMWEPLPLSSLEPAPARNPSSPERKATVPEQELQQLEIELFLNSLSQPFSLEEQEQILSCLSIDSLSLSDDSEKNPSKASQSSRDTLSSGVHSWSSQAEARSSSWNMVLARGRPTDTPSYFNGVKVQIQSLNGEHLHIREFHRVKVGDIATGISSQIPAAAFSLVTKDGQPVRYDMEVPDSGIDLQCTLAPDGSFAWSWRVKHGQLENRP

In the assay the target is Mitogen-activated protein kinase kinase kinase 14 (Homo sapiens, UniProt Q99558). The experiment in a line: Inhibition of NIK (unknown origin) after 1 to 2 hrs by ADP-FP assay. The class given is single protein.
In general, Ki refers to the equilibrium dissociation constant of an inhibitor or competing ligand from its target. The low end stands for higher affinity, the high end for lower affinity. The molecule `C[C@H]1Cn2cc(C(N)=O)nc2-c2cc(C#CC(C)(C)O)ccc2O1` yielded a Ki of 547 nM.
The figure for `C[C@@H]1Cn2cc(C(N)=O)nc2-c2cc(C#CC(C)(C)O)ccc2O1` is 1160 nM; for `CN1CC[C@](O)(C#Cc2cc3c(cc2F)OCCn2cc(C(N)=O)nc2-3)C1=O` it is 405 nM; for `CN1CC[C@@](O)(C#Cc2cc3c(cc2F)OCCn2cc(C(N)=O)nc2-3)C1=O` it is 0.8 nM.
